These results are taken from ChEMBL document CHEMBL1143499, “Fused pyrimidine based inhibitors of phosphodiesterase 7 (PDE7): synthesis and initial structure-activity relationships” (Bioorg Med Chem Lett, 2005).

Sequences of proteins named here, by UniProt entry; tags and fusion partners are left off.
UniProt O00408, whole entry: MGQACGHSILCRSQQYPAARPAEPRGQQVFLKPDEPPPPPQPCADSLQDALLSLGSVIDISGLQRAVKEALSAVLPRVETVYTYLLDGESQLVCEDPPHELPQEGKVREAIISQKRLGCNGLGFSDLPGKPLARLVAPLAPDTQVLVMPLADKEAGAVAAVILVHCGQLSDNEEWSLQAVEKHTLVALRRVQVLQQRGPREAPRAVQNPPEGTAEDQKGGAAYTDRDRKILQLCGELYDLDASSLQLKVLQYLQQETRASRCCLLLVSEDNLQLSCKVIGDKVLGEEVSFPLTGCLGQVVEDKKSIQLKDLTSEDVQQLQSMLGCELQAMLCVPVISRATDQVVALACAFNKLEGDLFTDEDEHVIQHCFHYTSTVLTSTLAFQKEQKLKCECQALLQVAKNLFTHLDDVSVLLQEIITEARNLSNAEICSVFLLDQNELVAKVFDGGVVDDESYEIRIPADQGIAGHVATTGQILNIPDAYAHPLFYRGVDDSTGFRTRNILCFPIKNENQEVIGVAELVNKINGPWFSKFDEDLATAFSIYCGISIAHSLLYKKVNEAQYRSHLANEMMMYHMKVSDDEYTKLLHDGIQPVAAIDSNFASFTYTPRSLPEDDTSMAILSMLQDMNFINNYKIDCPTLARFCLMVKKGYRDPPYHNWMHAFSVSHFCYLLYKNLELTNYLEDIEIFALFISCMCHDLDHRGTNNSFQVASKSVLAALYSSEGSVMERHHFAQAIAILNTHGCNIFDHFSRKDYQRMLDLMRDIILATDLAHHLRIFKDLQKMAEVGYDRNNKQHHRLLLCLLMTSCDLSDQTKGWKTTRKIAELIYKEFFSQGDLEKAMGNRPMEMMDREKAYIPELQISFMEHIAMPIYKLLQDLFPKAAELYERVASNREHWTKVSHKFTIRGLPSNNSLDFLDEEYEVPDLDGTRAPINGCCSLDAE

Assay [1] is described as follows: Relative binding to Phosphodiesterase 1 and Phosphodiesterase 7, ratio of IC50.
Assay [2] can be described thus: Relative binding to Phosphodiesterase 3 and Phosphodiesterase 7, ratio of IC50.
Assay [3] can be described thus: Relative binding to Phosphodiesterase 5 and Phosphodiesterase 7, ratio of IC50.
Assay [4] in a line: Relative binding to Phosphodiesterase 2 and Phosphodiesterase 7, ratio of IC50.
Assay [5] is described as follows: Relative binding to Phosphodiesterase 4 and Phosphodiesterase 7, ratio of IC50.
For assay [6], the target named is cGMP-dependent 3',5'-cyclic phosphodiesterase (Homo sapiens, UniProt O00408). The experiment in a line: Inhibition of Phosphodiesterase 2.

For `CCOC(=O)c1sc(Nc2nc(NCc3ccc(S(N)(=O)=O)cc3)c3c(ncn3CC)n2)nc1C`, the Ratio in assay [1] is 86; in assay [2] it was 270; in assay [3] it was 1; in assay [4], 86; in assay [5] it was 50.

`CCCc1nn(C)c2c(=O)[nH]c(-c3cc(S(=O)(=O)N4CCN(C)CC4)ccc3OCC)nc12` yielded an IC50 in assay [6] of more than 10 µM.
